“And” between values parts separate entries of the source, which are not always exact repeats. Identical values can stand only once. Only a part is listed here, and it is no random draw.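 The test compound was applied at a single concentration to cells in 96-well plates for 48 hours, and percent growth was recorded.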 The source made the active and inactive calls. How the source made its calls: active means growth percent below 10; inactive means the rest.

Test systems include HCT-15 colon; HT29 colon; SNB-75 CNS; SNB-19 CNS; U251 CNS; PC-3 prostate; SK-MEL-5 melanoma; UACC-62 melanoma; LOX IMVI melanoma; SK-MEL-28 melanoma.
Holding throughout (assay): NCI-60 one-dose screen, 48 h (100 = growth as untreated, 0 = no growth, -100 = all killed)
Common to all, as to settings: 10 µM

Consider `Cc1ccccc1NC1(C#N)CCN(Cc2ccccc2)CC1`, for which the growth in the assay on HCT-15 colon was inactive: 101%; in the assay on HT29 colon, inactive: 116%; in the assay on SNB-75 CNS it was inactive: 95.7%; in the assay on SNB-19 CNS, inactive: 109%; in the assay on U251 CNS, inactive: 106%; with PC-3 prostate it was inactive: 88.4%. Also, the growth in the assay on SK-MEL-5 melanoma was inactive: 101%; with UACC-62 melanoma, inactive: 107%; with LOX IMVI melanoma, inactive: 96.1%; in the assay on SK-MEL-28 melanoma it was inactive: 103%.

Consider `O=Cc1ccc(N(CCCl)CCCl)cc1Cl`, for which the growth is inactive: 86.1% in the assay with HCT-15 colon; inactive: 72.9% with HT29 colon; inactive: 80.6% in the assay with SNB-75 CNS; inactive: 97.4% with SNB-19 CNS; inactive: 46.5% in the assay on U251 CNS; inactive: 67.5% in the assay on PC-3 prostate. Also, the growth is inactive: 70% in the assay with SK-MEL-5 melanoma, active: -4.06% in the assay with UACC-62 melanoma, inactive: 93.6% in the assay with LOX IMVI melanoma and inactive: 88.8% in the assay on SK-MEL-28 melanoma.

In the case of `COc1ccc(N)cc1CN(CCCl)CCCl`, the growth is inactive: 81.9% with HCT-15 colon; inactive: 66.5% in the assay on HT29 colon; inactive: 73.5% in the assay with SNB-75 CNS; inactive: 87% in the assay with SNB-19 CNS; inactive: 64.1% in the assay with U251 CNS; inactive: 57.7% in the assay on PC-3 prostate. The growth is inactive: 94% in the assay with SK-MEL-5 melanoma, inactive: 53% in the assay on UACC-62 melanoma, inactive: 51.4% in the assay with LOX IMVI melanoma and inactive: 101% in the assay with SK-MEL-28 melanoma.

Regarding `Fc1ccc(CCN(CCCl)CCCl)cc1`, the growth was inactive: 99.3% in the assay with HCT-15 colon; inactive: 98.1% in the assay with HT29 colon; inactive: 70.5% with SNB-75 CNS; inactive: 107% in the assay with SNB-19 CNS; inactive: 103% with U251 CNS; inactive: 95% with PC-3 prostate. The growth with SK-MEL-5 melanoma is inactive: 102%; in the assay on UACC-62 melanoma, inactive: 100%; with LOX IMVI melanoma it was inactive: 102%; in the assay on SK-MEL-28 melanoma it was inactive: 106%.

Take `CC(C)(C)C(=O)CBr`: the growth in the assay with HCT-15 colon was inactive: 110%; in the assay on HT29 colon, inactive: 110%; with SNB-75 CNS, inactive: 100%; in the assay with SNB-19 CNS it was inactive: 103%; with U251 CNS it was inactive: 99.8%; in the assay with PC-3 prostate it was inactive: 96.8%. Moreover, the growth was inactive: 101% in the assay with SK-MEL-5 melanoma, inactive: 109% in the assay on UACC-62 melanoma, inactive: 57.6% in the assay on LOX IMVI melanoma and inactive: 113% with SK-MEL-28 melanoma.

Take `COc1cc(CN(CCCl)CCBr)cc(OC)c1`: the growth in the assay with HCT-15 colon was inactive: 110%; in the assay on HT29 colon, inactive: 106%; in the assay on SNB-75 CNS, inactive: 78.8%; in the assay on SNB-19 CNS it was inactive: 117%; in the assay with U251 CNS it was inactive: 98.9%; in the assay with PC-3 prostate, inactive: 91.1%. The growth is inactive: 107% with SK-MEL-5 melanoma, inactive: 108% in the assay on UACC-62 melanoma, inactive: 98.1% in the assay on LOX IMVI melanoma and inactive: 107% in the assay with SK-MEL-28 melanoma.

For the compound `CCNC(=O)Cc1ccc(N(CCCl)CCCl)cc1`, the growth was inactive: 77.8% with HCT-15 colon; inactive: 82.4% in the assay on HT29 colon; inactive: 92.4% in the assay with SNB-75 CNS; inactive: 88.2% in the assay on SNB-19 CNS; inactive: 70% in the assay with U251 CNS; inactive: 80.9% in the assay on PC-3 prostate. For the same compound, the growth in the assay with SK-MEL-5 melanoma was inactive: 85.7%; in the assay on UACC-62 melanoma it was inactive: 76.5%; in the assay with LOX IMVI melanoma, inactive: 58.1%; in the assay on SK-MEL-28 melanoma, inactive: 101%.

`Cc1cc(O)c(CN(CC(C)Cl)CC(C)Cl)cc1C` (stereo not given): the growth in the assay on HCT-15 colon is inactive: 109%; in the assay on HT29 colon, inactive: 99.9%; in the assay on SNB-75 CNS, inactive: 87.2%; in the assay with SNB-19 CNS, inactive: 112%; in the assay on U251 CNS, inactive: 111%; with PC-3 prostate, inactive: 120%. For the same compound, the growth in the assay with SK-MEL-5 melanoma is inactive: 110%; with UACC-62 melanoma, inactive: 111%; in the assay on LOX IMVI melanoma, inactive: 97.7%; with SK-MEL-28 melanoma, inactive: 105%.

For `Oc1ccc(Br)cc1CN(CCCl)CCCl`, the growth with HCT-15 colon was inactive: 67.5%; in the assay on HT29 colon, inactive: 63.3%; in the assay on SNB-75 CNS it was inactive: 64%; in the assay with SNB-19 CNS it was inactive: 58.8%; in the assay on U251 CNS, inactive: 53.1%; in the assay on PC-3 prostate, inactive: 77.7%. The growth is inactive: 73% in the assay on SK-MEL-5 melanoma, inactive: 36.3% in the assay on UACC-62 melanoma, inactive: 41.7% in the assay with LOX IMVI melanoma and inactive: 94% with SK-MEL-28 melanoma.

Consider `Oc1ccc(O)c(CN(CCCl)CCCl)c1`, for which the growth with HCT-15 colon is inactive: 98.1%; in the assay with HT29 colon, inactive: 90%; in the assay on SNB-75 CNS, inactive: 92.9%; in the assay on SNB-19 CNS, inactive: 106%; in the assay on U251 CNS, inactive: 107%; in the assay on PC-3 prostate, inactive: 95.7%. Also, the growth is inactive: 108% in the assay with SK-MEL-5 melanoma, inactive: 88.6% in the assay with UACC-62 melanoma, inactive: 89.4% in the assay on LOX IMVI melanoma and inactive: 117% with SK-MEL-28 melanoma.

For the compound `Cc1ccc(NC2(C#N)CCN(Cc3ccccc3)CC2)cc1`, the growth with HCT-15 colon was inactive: 84.2%; with HT29 colon it was inactive: 97.2%; in the assay with SNB-75 CNS, inactive: 81.3%; with SNB-19 CNS, inactive: 105%; in the assay on U251 CNS, inactive: 96.7%; in the assay on PC-3 prostate, inactive: 93.3%. The growth was inactive: 104% in the assay with SK-MEL-5 melanoma, inactive: 86.7% in the assay with UACC-62 melanoma, inactive: 88.9% in the assay on LOX IMVI melanoma and inactive: 117% with SK-MEL-28 melanoma.

Take `O=C(O)CCc1ccc(CSCCCl)cc1`: the growth with HCT-15 colon was inactive: 105%; with HT29 colon it was inactive: 107%; in the assay on SNB-75 CNS, inactive: 101%; in the assay with SNB-19 CNS, inactive: 99.4%; in the assay with U251 CNS, inactive: 108%; in the assay with PC-3 prostate it was inactive: 99%. In addition, the growth in the assay with SK-MEL-5 melanoma was inactive: 101%; in the assay with UACC-62 melanoma, inactive: 93%; in the assay on LOX IMVI melanoma it was inactive: 103%; in the assay with SK-MEL-28 melanoma, inactive: 109%.

Regarding `ClCCN1CCN(CCCl)CC1`, the growth in the assay with HCT-15 colon is inactive: 98.3%; in the assay on HT29 colon, inactive: 105% and inactive: 99.3%; with SNB-75 CNS, inactive: 82.6% and inactive: 75.2%; with SNB-19 CNS, inactive: 97.5% and inactive: 105%; with U251 CNS, inactive: 95.9%; in the assay on PC-3 prostate, inactive: 88.4% and inactive: 96.9%. Besides, the growth was inactive: 102% and inactive: 101% in the assay on SK-MEL-5 melanoma; inactive: 102% and inactive: 96.5% with UACC-62 melanoma; inactive: 97.6% and inactive: 50.6% in the assay with LOX IMVI melanoma; inactive: 107% and inactive: 112% in the assay on SK-MEL-28 melanoma.

`NC(=O)C1(Nc2ccccc2)CCN(Cc2ccccc2)CC1`: the growth in the assay on HCT-15 colon was inactive: 105%; in the assay with HT29 colon, inactive: 108%; in the assay on SNB-75 CNS, inactive: 86.2%; in the assay on SNB-19 CNS, inactive: 107%; in the assay on U251 CNS it was inactive: 109%; with PC-3 prostate, inactive: 94.4%. Moreover, the growth was inactive: 98.2% in the assay on SK-MEL-5 melanoma, inactive: 103% in the assay with UACC-62 melanoma, inactive: 101% in the assay on LOX IMVI melanoma and inactive: 108% in the assay with SK-MEL-28 melanoma.
